Results published in patent US4977267A, “Intermediates for pyridyloxy compounds having utility as anti-peptic ulcer agents” (Fujirebio Kabushiki Kaisha, priority 1987, dated 1990).

Sequences of proteins named here, by UniProt entry; tags and fusion partners are left off.
UniProt P47747, whole entry: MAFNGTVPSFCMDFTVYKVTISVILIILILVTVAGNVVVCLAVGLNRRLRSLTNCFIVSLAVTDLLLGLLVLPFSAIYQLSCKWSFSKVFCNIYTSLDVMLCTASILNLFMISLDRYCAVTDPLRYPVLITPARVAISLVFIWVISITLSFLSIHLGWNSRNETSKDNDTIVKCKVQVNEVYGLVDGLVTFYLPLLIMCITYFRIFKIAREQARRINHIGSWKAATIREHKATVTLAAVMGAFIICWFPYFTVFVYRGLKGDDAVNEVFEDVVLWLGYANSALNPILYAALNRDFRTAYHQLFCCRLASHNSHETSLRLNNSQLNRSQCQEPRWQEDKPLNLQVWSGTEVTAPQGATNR

Target: T1, histamine H2 receptor (Cavia porcellus, UniProt P47747)
T1 construct: the right atrium was dissected from the hearts; from tissue; host or cells: isolated right atrium of male Hartley-strain guinea pigs
Assay: Test on histamine H2 receptor antagonizing activity (isolated right atrium)
Set-up: species or system Hartley-strain guinea pigs
Conditions: guinea pig right atrium, heart rate; histamine dose-response; test compound 1×10^-6, 1×10^-7 M, 10 minutes; Van Rossum method; read-out: pA2 (converted)
Procedure: Test on histamine H2 receptor antagonizing activity
Hartley-strain guinea pigs (male 300 to 350 g) were stunned with a blow to the head. The heart was removed, and the right atrium was dissected from the hearts in the Krebs' solution bubbled with a […] was suspended in an Organ bath filled with the Krebs' solution kept at 32° C. The gaseous mixture was passed through the Organ bath, and a diastolic tension was adjusted to 1 g. The contraction of the atrium was recorded by a force displacement transducer, and the heart rate was measured by interlocking a heart rate meter to the transducer.
Histamine (used in the form of dihydrochloride; the same hereinafter) was added to the Organ bath cumulatively in a concentration of 1×10^-8 M to 3×10^-5 M. Thus, the dose-response curve of histamine was obtained. The Organ bath was washed several times, and each of the test compounds (1×10^-6, 1×10^-7 M) was added to the Organ bath, and a dose-response curve of histamine in the presence of the test compound was obtained 10 minutes later.
The pA2 value of each of the test compound was determined from the first histamine dose-response curve and the histamine dose-response curve obtained in the presence of the test compounds by the method of J. M. Van Rossum (Arch. Int. Pharmacodyn. Ther., 143-299, 1963).

## CN/C(=N/CCSCc1nc[nH]c1C)NC#N [Cimetidine, cimetidine, reference compound]
  Kb: 316 nM
